The record followed here is US4520101A (priority 1983, dated 1985).

Assay [1] has as its system Cephalosporium acremonium (a high ceph C-producing mutant strain which also produces desacetyl ceph C). In words: Shake flask fermentation, inhibitors added at day 4 (Example 1). Format: cell-based. To be noted: broth after six days.
The subject of assay [2] is desacetylcephalosporin C production. In words: Fermentors, additional phosphorous compounds (Example 7).
Setting [3] is: 600 ppm added at day 4 (96 hours).
Setting [4] is: 1600 ppm added at day 4 (96 hours).

Only a part of the results on these compounds is given; other tests are left out.

`CC(C)OP(OC(C)C)OC(C)C`: in assay [1] (setting [3]), the “Ceph C” value stood at 8995 µg/g, the “Des C/Total Ceph Nucleus (Ceph C + Des Ceph C)” value was determined as 5.56% and the “Des Ceph C” value turned out to be 530 µg/g. Besides, in assay [1] (setting [4]), the “Ceph C” value is 11,000 mcg/g, the “Des C/Total Ceph Nucleus (Ceph C + Des Ceph C)” value is listed as 4.96% and the “Des Ceph C” value came to 575 µg/g. In addition, the “inhibitory activity with respect to desacetylcephalosporin C production” value in assay [2] is “exhibited inhibitory activity”.
